Results reported in paper PMC4621360.

Biological target: Kap95 (S. cerevisiae) (UniProt Q06142)
Test: NMR titration; 15N R2 titration at 500 MHz in buffer A (20 mM HEPES, 150 mM KCl, 2 mM MgCl2, pH 6.5); Kap95 fixed at 20 μM, 15N FSFG-K varied from 12.5 to 1200 μM; apparent Kd, taken as a lower bound

apparent Kd for each FSFG site: 216 µM
sequence-specific apparent Kd (G of FSFG): 17 µM
sequence-specific apparent Kd (S of FSFG): 55 µM
sequence-specific apparent Kd (first F of FSFG): 31 µM
sequence-specific apparent Kd (second F of FSFG): 44 µM
Substance: FSFG-K, M-Nsp1(274–397)-LEHHHHHH (domain or fragment)
